Key:
α1a-AR = α1a-AR (Homo sapiens, UniProt P35348); test: radioligand ([125I]-HEAT) receptor binding assay, COS cell membranes expressing cloned receptor; settings: read-out: α1a IC50, [125I]-HEAT 50 pM, 1 hour room temperature
α1b-AR = α1b-AR (Homo sapiens, UniProt P35368); test: as above; settings: read-out: α1b IC50, [125I]-HEAT 50 pM, 1 hour room temperature
α1d-AR = α1d-AR (Homo sapiens, UniProt P25100); test: as above; settings: read-out: α1d IC50, [125I]-HEAT 50 pM, 1 hour room temperature
rat aorta tissues = test: norepinephrine-induced contractile response of rat aortic rings; type: cell-based; settings: read-out: IC50 of inhibition of contractile response in aortic tissue; norepinephrine-induced contraction, Long Evans rat aortic rings, 2 grams tension, 37° C.
Source text: (§1) The contractile responses of rat prostatic tissue and rat aorta tissues were examined in the presence and absence of antagonist compounds. As an indication of the selectivity of antagonism, test compound effects on vascular smooth muscle contractility (α1b-AR and α1d-AR) were compared to the effects on prostatic smooth muscle (α1a-AR). Strips of prostatic tissue and aortic rings were obtained from Long Evans derived male rats weighing 275 grams and sacrificed by cervical dislocation. The prostate tissue was placed under 1 gram tension in a 10 ml bath containing phosphate buffered saline pH 7.4 at 32° C. and isometric tension was measured with force transducers. The aortic tissue was placed under 2 grams tension in a 10 ml bath containing phosphate buffered saline pH 7.4 at 37° C.

Chains of the proteins cited; added tags and fusions are not shown.
UniProt P35348, whole entry: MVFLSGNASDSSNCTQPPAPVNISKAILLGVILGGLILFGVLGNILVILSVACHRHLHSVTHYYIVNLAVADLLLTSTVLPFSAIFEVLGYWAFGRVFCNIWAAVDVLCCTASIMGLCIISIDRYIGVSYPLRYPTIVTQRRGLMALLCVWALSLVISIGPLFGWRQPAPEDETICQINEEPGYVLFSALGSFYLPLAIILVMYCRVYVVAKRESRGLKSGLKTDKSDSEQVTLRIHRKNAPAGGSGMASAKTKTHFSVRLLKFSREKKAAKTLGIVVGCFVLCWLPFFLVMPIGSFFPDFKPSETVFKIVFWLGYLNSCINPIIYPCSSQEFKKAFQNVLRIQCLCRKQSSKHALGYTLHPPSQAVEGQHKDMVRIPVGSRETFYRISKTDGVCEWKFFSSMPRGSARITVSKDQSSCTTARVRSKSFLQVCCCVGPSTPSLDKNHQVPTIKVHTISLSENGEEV
UniProt P35368, whole entry: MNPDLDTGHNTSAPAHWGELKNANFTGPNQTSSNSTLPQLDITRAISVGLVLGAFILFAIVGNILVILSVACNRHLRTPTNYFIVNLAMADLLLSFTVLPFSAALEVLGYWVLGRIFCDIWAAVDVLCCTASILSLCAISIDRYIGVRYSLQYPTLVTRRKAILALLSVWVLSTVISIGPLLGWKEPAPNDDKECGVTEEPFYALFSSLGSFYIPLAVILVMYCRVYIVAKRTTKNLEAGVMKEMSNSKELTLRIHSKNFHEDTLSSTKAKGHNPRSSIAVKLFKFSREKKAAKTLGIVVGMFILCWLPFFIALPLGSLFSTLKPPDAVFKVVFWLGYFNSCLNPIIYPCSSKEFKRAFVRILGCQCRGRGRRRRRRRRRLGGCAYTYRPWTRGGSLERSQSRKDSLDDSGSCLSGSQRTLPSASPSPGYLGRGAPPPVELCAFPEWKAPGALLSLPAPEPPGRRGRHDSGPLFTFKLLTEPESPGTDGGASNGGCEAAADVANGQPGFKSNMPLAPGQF
UniProt P25100, whole entry: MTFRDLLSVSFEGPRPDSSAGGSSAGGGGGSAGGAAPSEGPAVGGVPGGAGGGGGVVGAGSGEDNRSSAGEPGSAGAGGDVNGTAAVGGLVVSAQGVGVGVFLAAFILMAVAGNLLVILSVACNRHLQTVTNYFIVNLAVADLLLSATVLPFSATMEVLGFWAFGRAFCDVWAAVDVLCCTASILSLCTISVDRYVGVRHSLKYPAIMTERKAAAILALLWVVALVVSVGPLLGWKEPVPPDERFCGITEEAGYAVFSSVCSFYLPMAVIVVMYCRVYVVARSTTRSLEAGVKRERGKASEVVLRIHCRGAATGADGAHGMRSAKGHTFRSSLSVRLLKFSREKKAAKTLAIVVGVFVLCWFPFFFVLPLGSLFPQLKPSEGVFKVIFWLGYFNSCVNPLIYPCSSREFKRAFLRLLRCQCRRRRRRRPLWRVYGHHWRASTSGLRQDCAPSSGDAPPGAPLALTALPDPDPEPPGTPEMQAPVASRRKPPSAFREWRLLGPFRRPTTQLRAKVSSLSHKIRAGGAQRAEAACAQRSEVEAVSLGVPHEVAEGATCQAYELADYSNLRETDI

rat prostatic tissue = test: norepinephrine-induced contractile response of rat prostatic tissue strips; type: cell-based; settings: read-out: IC50 of inhibition of contractile response in prostate tissue; norepinephrine-induced contraction, Long Evans rat prostatic strips, 1 gram tension, 32° C.
Source text: as §1

SMILES	IC50 (α1a-AR)	IC50 (α1b-AR)	IC50 (α1d-AR)	IC50 (rat aorta tissues)	IC50 (rat prostatic tissue)
COc1ccc(N2C(=O)c3ccc(C(=O)NC[C@H](O)CN4CCN(c5ccccc5OC(C)C)CC4)cc3C2=O)c(OC)c1	590 pM	> 2e+06 pM	56000 pM	–	–
COc1cc(N2C(=O)c3ccc(C(=O)NC[C@H](O)CN4CCN(c5ccccc5OC(C)C)CC4)cc3C2=O)cc(OC)c1OC	620 pM	> 2e+06 pM	51000 pM	–	–
COc1ccc(N2C(=O)c3ccc(C(=O)NC[C@H](O)CN4CCN(c5ccccc5OC(C)C)CC4)cc3C2=O)cc1	–	1.75e+06 pM	–	–	–
Cc1ccc(N2C(=O)c3ccc(C(=O)NC[C@H](O)CN4CCN(c5ccccc5OC(C)C)CC4)cc3C2=O)cc1C	260 pM	> 2e+06 pM	121000 pM	–	–
Cc1ccc(N2C(=O)c3ccc(C(=O)NC[C@H](O)CN4CCN(c5ccccc5OC(C)C)CC4)cc3C2=O)cc1	160 pM	1.65e+06 pM	37000 pM	42500 nM	750 nM
